# PubChem BioAssay AID504634 (The Scripps Research Institute Molecular Screening Center, 2011)
# Sequences of proteins named here, by UniProt entry; tags and fusion partners are left off.
# UniProt P47898, whole entry, looked up: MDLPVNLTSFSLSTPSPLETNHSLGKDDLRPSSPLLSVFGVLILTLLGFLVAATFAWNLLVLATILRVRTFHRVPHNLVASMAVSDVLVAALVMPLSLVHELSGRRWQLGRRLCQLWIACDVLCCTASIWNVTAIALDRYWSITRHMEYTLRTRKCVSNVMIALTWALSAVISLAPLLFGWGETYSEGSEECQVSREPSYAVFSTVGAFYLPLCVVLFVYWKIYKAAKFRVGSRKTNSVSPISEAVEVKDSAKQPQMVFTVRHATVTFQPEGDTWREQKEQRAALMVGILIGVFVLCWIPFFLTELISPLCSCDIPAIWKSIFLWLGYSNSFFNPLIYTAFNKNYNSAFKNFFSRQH
# The entries are a selection whose mix differs from that of the whole data set. The source made the active and inactive calls. Rule as the data show it: active = inhibition mostly above about 23% (no sharp cut-off); inactive = mostly below about 18%.
# Biological target: 5-hydroxytryptamine receptor 5A (Homo sapiens) (UniProt P47898)
# Experiment: inverse agonism at human 5-HT5A receptor – cell-based, luminescence, full-deck HTS, counter-screen for OPRM1-OPRD1 heterodimer inverse agonist project, primary screen (AID 504634);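 also: 0% = cells with DMSO and 100% = no-cell wells with DMSO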
# Settings: HTR5A cell line, at 9.3 µM, hits give high values
row,SMILES,inhibition
1,CCN(Cc1ccccc1)C(=O)Cn1cnc2c1c(=O)n(C)c(=O)n2C,inactive: 3.51%
2,CCN(CC)CCn1c(=N)n(CC(O)COc2ccccc2)c2ccccc21 (stereo not drawn),inactive: 25%
3,C[C@H](NC(=O)N1CCn2c1nc1ccccc12)C(=O)NCc1ccc2c(c1)OCO2,inactive: 9.08%
4,CC(C(O)c1ccccc1)N(C)CCn1cnc2c1c(=O)n(C)c(=O)n2C (stereo not drawn),inactive: -2.12%
5,CN(C(=O)Cc1ccccc1)[C@@H]1CC[C@]2(CCCO2)C[C@H]1N1CCCC1,inactive: 6.93%
6,CCOP1(=S)c2c(C)nn(CCC#N)c2N=C(c2ccc(F)cc2)N1C (stereo not drawn),inactive: -6.65%
7,Cn1c(=O)c2c(nc(CN3CCN(c4ccccc4F)CC3)n2CCN2CCOCC2)n(C)c1=O,inactive: 3.87%
8,Fc1ccc2c(c1)nnn2C1CCN(Cc2c(Cl)cccc2Cl)CC1,inactive: -4.9%
9,CC(C)[C@H](NC(=O)N1CCn2c1nc1ccccc12)C(=O)NCc1ccco1,inactive: 9.44%
10,COc1ccc(CNC(=O)[C@H](CCSC)NC(=O)N2CCn3c2nc2ccccc23)cc1,inactive: -5.15%
11,CCOC(=O)c1ccc(N2C(=O)CC(N3CCC(Nc4ccc(F)cc4)CC3)C2=O)cc1 (stereo not drawn),inactive: -10.5%
12,O=C(Cn1cnc2ccccc21)N/N=C/c1ccccc1[N+](=O)[O-],inactive: 9.8%
13,N#CCCN(C(=O)COC(=O)C(O)(c1ccccc1)c1ccccc1)c1ccc(F)cc1,inactive: 9.79%
14,O=C(CSc1nc2ccccc2n1CC(=O)N1CCCC1)Nc1nccs1,inactive: 1.02%
15,O=C(Nc1ccccc1)N1CCn2c1nc1ccccc12,inactive: 4.92%
16,CC(C)CN(C(=O)Cn1c(C(F)(F)F)nc2ccccc21)C1CCS(=O)(=O)C1 (stereo not drawn),inactive: -4.08%
17,CN(C(=O)Cc1ccc(Cl)c(Cl)c1)[C@H]1CC[C@@]2(CCCO2)C[C@@H]1N1CCCC1,inactive: -27.9%
18,Cc1ccc2c(c1)C1CN(C)CCC1N2C(=S)NC(=O)c1ccc(Br)cc1 (stereo not drawn),inactive: 12.5%
19,CCc1cccc(C)c1NC(=O)Cn1c(NCCO)nc2ccccc21,inactive: 12.8%
20,CN(C)C(=O)c1cc([N+](=O)[O-])cc2c1-c1c(cc([N+](=O)[O-])cc1[N+](=O)[O-])C2=O,inactive: 21.4%
21,O=[N+]([O-])c1ccc2c(c1)nnn2O,inactive: -5.29%
22,CC1CCCCN1C(=O)Cn1cnc2c1c(=O)n(C)c(=O)n2C (stereo not drawn),inactive: -9.91%
23,Cn1c(=O)c2c(ncn2CC(=O)N(Cc2ccccc2)c2ccccn2)n(C)c1=O,inactive: -5.44%
24,Cc1ccc(C(=O)Nc2nc3ccccc3n2CCN2CCCC2)cc1,inactive: -20.9%

row,SMILES,inhibition
1,CCN(CC)CCn1c(NCc2ccc(C)o2)nc2ccccc21,inactive: 16%
2,O=C(Nc1nc2ccccc2n1CCN1CCCC1)C1CCCCC1,inactive: -2.54%
3,CCC(C)NC(=O)Cn1c(COc2ccc(Cl)cc2Cl)nc2ccccc21 (stereo not drawn),inactive: 5.21%
4,CCC(C)[C@H](NC(=O)N1CCn2c1nc1ccccc12)C(=O)NCc1ccc(OC)cc1 (stereo partly drawn),inactive: -19.9%
5,Cn1c(=O)[nH]c(=O)c2c1ncn2CCN1CCOCC1,inactive: 7.4%
6,CC(=O)Nc1nc2ccccc2n1CCN1CCOCC1,inactive: -19.3%
7,Cc1nc2ccccc2n1C1CC(=O)N(N(C)C)C1=O (stereo not drawn),inactive: 13%
8,CCOC(=O)C1=C(Cn2cnc3ccccc32)NC(=O)NC1c1ccc(OC)cc1 (stereo not drawn),inactive: 14%
9,CC(=O)OCCNC(=O)Cn1cnc2c1c(=O)n(C)c(=O)n2C,inactive: -11.7%
10,Cc1cccc(C)c1NC(=O)Cn1cnc2c(=O)n(C)c(=O)n(C)c21,inactive: -7.67%
11,CCCCNC(=O)Cn1c(=O)n(C)c2ccccc21,inactive: -7.2%
12,O=C(Cn1cnc2c(NCc3ccccc3)ncnc21)NCCc1cc2ccccc2[nH]1,inactive: 0.79%
13,NC(=O)Nc1ccc([As](=O)(O)O)cc1,inactive: 10.3%
14,O=C(Cn1cnc2ccccc21)N/N=C/c1cccc([N+](=O)[O-])c1,inactive: -1.83%
15,CC1Cc2ccccc2N1C(=O)CSc1nc2ccccc2n1CC(=O)N1CCOCC1 (stereo not drawn),inactive: -17.7%
16,Nc1nc2ccccc2n1CCN1CCCC1,inactive: -21.9%
17,CC(C)NC(=S)N1CCn2c(nc3ccccc32)C1,inactive: -4.34%
18,O=C(CCCCCNC(=O)N1CCn2c1nc1ccccc12)NCc1ccc(Cl)cc1,inactive: -7.3%
19,Cc1nn2c3ccccc3n(CCN3CCCCC3)c2nc1=O,inactive: 16.5%
20,Cc1ccc2c(c1)C1CN(C)CCC1N2S(=O)(=O)c1ccc(C#N)cc1 (stereo not drawn),inactive: 6.25%
21,FC(F)(F)c1ccc2c(c1)ncn2C1CCN(Cc2nnnn2C2CCCCC2)CC1,inactive: -15.8%
22,CCOC(=O)C1=C(C)N=C2SCCC(=O)N2[C@@H]1/C=C/c1ccccc1,inactive: 14.1%
23,COC(=O)[C@H](CC(C)C)NC(=O)Cn1cnc2c(OCc3ccccc3)ncnc21,inactive: 2.72%
24,COc1ccc(-c2csc(NCCn3c(C)nc4cc(C(F)(F)F)ccc43)n2)cc1,inactive: -27.2%

row,SMILES,inhibition
1,O=C(Cn1c(-c2cncs2)nc2ccccc21)NC1CCCC1,inactive: -30.3%
2,CCN(CC)CCn1c(NCc2cc(OC)ccc2OC)nc2ccccc21,inactive: 13.6%
3,N#CCC(=O)N1CCn2c1nc1ccccc12,inactive: 1.8%
4,O=C(Cn1c(CO)nc2ccccc21)NC1CCCCCC1,inactive: 1.55%
5,CCOC(=O)CSc1nc2ccccc2n1CC(=O)NC(C)(C)C,inactive: -15.9%
6,O=C(Cn1cnc2ccccc21)Nc1cccc(S(=O)(=O)N2CCCC2)c1,inactive: -19.3%
7,CCN(CC)CCn1cnc2c1c(=O)n(CCOC(=O)c1cc(OC)c(OC)c(OC)c1)c(=O)n2C,inactive: -7.35%
8,Cn1c(=O)c2c(ncn2CCN(CCO)Cc2ccccc2)n(C)c1=O,inactive: 15.2%
9,C=CCOC(=O)C1=C(C)N=C2SCCC(=O)N2C1/C=C/c1ccccc1 (stereo not drawn),inactive: 2.87%
10,O=[As](O)(c1cccc(O)c1)c1cccc(O)c1,inactive: -4.36%
11,COc1ccc(CNc2nc3ccccc3n2CCN2CCOCC2)cc1,inactive: -5.45%
12,Cc1cccc(OCC(=O)OC2CN3CCC2CC3)c1 (stereo not drawn),inactive: 20.2%
13,CCc1ccc(NC(=O)Cn2c3[n+](c4c(F)c(F)ccc42)CCCCC3)cc1,inactive: 9.81%
14,CC(C)(C)NC(=O)Cn1c(-c2nonc2N)nc2ccccc21,inactive: 14.7%
15,O=[N+]([O-])c1ccc2c(c1)nc1n2CCN(C2CCCCC2)C1,inactive: -1.64%
16,COC(=O)Cn1c(=N)n(CCN2CCCCC2)c2ccccc21,inactive: 0.67%
17,Cn1c(=O)c2ncn(CC(=O)NCCOc3ccccc3)c2n(C)c1=O,inactive: 18.4%
18,CC(C(=O)Nc1ccccc1C(=O)O)n1c(C(F)(F)F)nc2ccccc21 (stereo not drawn),inactive: 4.46%
19,CCN(CC)CCn1cnc2c1c(=O)[nH]c(=O)n2Cc1ccccc1,inactive: -6.79%
20,Cc1ccc(S(=O)(=O)c2nnn3c2nc(NC2CCN(Cc4ccccc4)CC2)c2ccccc23)cc1C,inactive: -13.6%
21,CN1CCC(N(C)c2nc(-c3ccccc3)nc3ccccc23)CC1,inactive: 4.38%
22,C[C@H](NC(=O)N1CCn2c1nc1ccccc12)C(=O)NCC1CCCO1 (stereo partly drawn),inactive: 2.09%
23,CCC(=O)Nc1ccc(NC(=S)NC(=O)/C=C/c2ccco2)cc1,inactive: 0.4%
24,CC(C(=O)N1CCc2ccccc21)n1cnc2c1c(=O)n(C)c(=O)n2C (stereo not drawn),inactive: 0.44%

row,SMILES,inhibition
1,CN1CCN(C(=O)Cn2c(C(F)(F)F)nc3ccccc32)CC1,inactive: 21.1%
2,c1ccc(Cn2c(CNc3nc4ccccc4n3CCN3CCCCC3)nc3ccccc32)cc1,inactive: -10.5%
3,O=C(c1ccccc1)N1CCn2c1nc1ccccc12,inactive: 8.55%
4,O=C(OC1CN2CCC1CC2)c1ccc(Cl)cc1 (stereo not drawn),inactive: 11.8%
5,Cn1cccc1/C=N/NC(=O)Cn1cnc2ccccc21,inactive: 4.68%
6,COCCCNC(=O)Cn1cnc2c(NCc3ccccc3)ncnc21,inactive: 3.09%
7,Cn1c(=O)c2c(ncn2CC(=O)Nc2cccc(S(=O)(=O)Nc3ccccc3F)c2)n(C)c1=O,inactive: 1.48%
8,CS(=O)(=O)c1ccc(Cl)c(NC(=O)COC(=O)C(O)(c2ccccc2)c2ccccc2)c1,inactive: 14.5%
9,C(=N\c1nc2ccccc2n1CCN1CCOCC1)/c1cccs1,inactive: -15.1%
10,CC(C)C(NS(=O)(=O)c1cccc2nsnc12)C(=O)N1CCn2c1nc1ccccc12 (stereo not drawn),inactive: -17%
11,Cc1nc2cc(C(F)(F)F)ccc2n1CCNc1nc(-c2ccc([N+](=O)[O-])c(Cl)c2)cs1,inactive: 10.9%
12,CCC(C)N(C(=O)Cn1cnc2c1c(=O)n(C)c(=O)n2C)C1CCS(=O)(=O)C1 (stereo not drawn),inactive: 3.44%
13,OCCNc1nc2ccccc2n1CCN1CCCCC1,inactive: -1.47%
14,Cc1nc2ccccc2n1CC(=O)NCCN1CCOCC1,inactive: 2.28%
15,O=[As](O)(O)c1cccnc1,inactive: -7.33%
16,Cn1c(=O)c2c(ncn2CC(=O)N2CCCCCC2)n(C)c1=O,inactive: 12.8%
17,CN(C)C(=O)Cn1c(=O)n(C)c2ccccc21,inactive: 2.79%
18,O=C(Cn1cnc2ccccc21)N/N=C/c1cccnc1,inactive: 5.27%
19,CCOC(=O)CC[C@H](NC(=O)Cn1cnc2c(OCc3ccccc3)ncnc21)C(=O)OCC,inactive: -21.6%
20,COc1ccc(CNC(=O)[C@H](C)NC(=O)N2CCn3c2nc2ccccc23)cc1,inactive: 0.27%
21,COc1cccc(CNC(=O)[C@H](CC(C)C)NC(=O)N2CCn3c2nc2ccccc23)c1,inactive: -8.35%
